Results as given in PubChem BioAssay AID2550 (Johns Hopkins Ion Channel Center, 2010).
Only a part is listed here, and it is no random draw. Active and inactive are the calls of the source.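 The calls were made as follows: active = B-score of the integrated fluorescence ratio above library mean plus 3 SD, and starting fluorescence ratio within library mean plus 5 SD; inactive = the rest.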

Protein sequences, listed by entry. Tags and fused reporters are not part of them.
UniProt Q61143, whole entry: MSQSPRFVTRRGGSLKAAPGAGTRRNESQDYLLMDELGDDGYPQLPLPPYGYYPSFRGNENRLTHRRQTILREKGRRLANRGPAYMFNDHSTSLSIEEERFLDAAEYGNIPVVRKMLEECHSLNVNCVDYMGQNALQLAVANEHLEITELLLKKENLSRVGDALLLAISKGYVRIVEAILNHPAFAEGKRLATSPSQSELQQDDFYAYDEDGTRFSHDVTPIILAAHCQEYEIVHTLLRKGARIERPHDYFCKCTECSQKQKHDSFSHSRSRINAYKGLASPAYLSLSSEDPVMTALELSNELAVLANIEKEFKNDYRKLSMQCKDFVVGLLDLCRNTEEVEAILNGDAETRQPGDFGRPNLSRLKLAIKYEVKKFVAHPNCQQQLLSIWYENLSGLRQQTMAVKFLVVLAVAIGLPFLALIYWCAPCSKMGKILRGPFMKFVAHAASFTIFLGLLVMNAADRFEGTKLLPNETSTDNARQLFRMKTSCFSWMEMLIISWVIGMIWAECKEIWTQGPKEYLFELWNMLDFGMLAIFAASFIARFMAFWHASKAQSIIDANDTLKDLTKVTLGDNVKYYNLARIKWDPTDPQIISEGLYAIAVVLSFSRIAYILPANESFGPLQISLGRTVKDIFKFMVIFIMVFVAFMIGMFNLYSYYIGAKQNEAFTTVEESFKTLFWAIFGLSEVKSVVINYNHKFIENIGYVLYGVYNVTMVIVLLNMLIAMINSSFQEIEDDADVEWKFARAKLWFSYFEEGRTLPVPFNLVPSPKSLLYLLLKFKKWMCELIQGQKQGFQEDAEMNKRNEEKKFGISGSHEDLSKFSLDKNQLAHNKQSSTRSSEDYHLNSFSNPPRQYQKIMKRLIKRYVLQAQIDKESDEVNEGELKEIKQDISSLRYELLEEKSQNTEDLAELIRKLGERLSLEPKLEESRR

Biological target: Short transient receptor potential channel 6 (Mus musculus) (UniProt Q61143)
Assay: mouse TRPC6 channel activators, primary screen, cell-based, HEK293, membrane potential dye (AID 2550);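 also: higher score means more depolarization so channel activation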
Details: HEK293-TRPC6 membrane potential dye fluorescence; at 10 µM

SMILES	outcome
O=[N+]([O-])c1cc([N+](=O)[O-])c(Nc2ccccn2)c([N+](=O)[O-])c1	inactive
CC(C)CC(=O)NC(Sc1ccc(Cl)cc1)C(Cl)(Cl)Cl (stereo not given)	inactive
CCc1ccc(OP(C)(=O)O)cc1	inactive
COc1ccccc1OP(C)(=O)Nc1ccc(C)cc1C (stereo not given)	inactive
CP(=O)(Nc1ccccn1)Oc1ccccc1 (stereo not given)	inactive
Cc1c2c(nc3ccccc13)SC(C(Cl)Cl)C2 (stereo not given)	inactive
Cc1cc(=O)[nH]c(N[N+](=O)[O-])n1	inactive
CCN(CC)CCCOC(=O)C(O)(c1ccccc1)c1ccccc1	inactive
O=C(OC1CN2CCC1CC2)C12CC3CC(CC(C3)C1)C2 (stereo not given)	inactive
COc1cc(I)ccc1[As](=O)(O)O	inactive
COc1ccc2nc(NP(=O)(c3ccccc3)c3ccccc3)sc2c1	inactive
COc1ccc(N/C(=N/P(=O)(N2CCOCC2)N2CCOCC2)N2CCOCC2)cc1	inactive
O=[N+]([O-])c1cc([N+](=O)[O-])c(Nc2cccnc2)c([N+](=O)[O-])c1	inactive
C[As](=O)(O)c1cccc(C(=O)O)c1	inactive
O=[As](O)(c1ccc(O)cc1)c1ccccc1O	inactive
Cc1cccc(C)c1OP(C)(N)=O (stereo not given)	inactive
Cc1ccc(OP(=O)(Nc2ccc([N+](=O)[O-])cn2)Oc2ccc(C)cc2)cc1	inactive
CC(C)(C)c1ccc(OP(C)(=O)Nc2ccc(SC(F)(F)F)cc2)cc1 (stereo not given)	inactive
O=[N+]([O-])c1ccc2c(c1)C=Nc1ccccc1O2	inactive
Cc1ccc2nc3c(c(C)c2c1)CC(C(Cl)Cl)S3 (stereo not given)	inactive
ClCCSc1nnc(-c2cccnc2)o1	inactive
CCOC(=O)c1ccc(NP(C)(=O)Oc2ccccc2)cc1 (stereo not given)	inactive
Cc1ccc(NP(C)(=O)Oc2ccccc2)c(C)c1 (stereo not given)	inactive
CC(C)c1ccc(OP(=O)(Nc2ccccn2)Oc2ccccc2F)cc1 (stereo not given)	inactive
COc1ccccc1OP(C)(=O)Nc1ccc(C)cc1 (stereo not given)	inactive

SMILES	outcome
COc1ccc(OP(C)(=O)Nc2cccc(F)c2)cc1 (stereo not given)	inactive
O=[N+]([O-])c1cc([N+](=O)[O-])c(-c2ccn[nH]2)s1	inactive
CC(C)NC(=O)NP(=O)(Oc1ccccc1)Oc1ccccc1	inactive
COc1ccccc1OP(C)(=O)Nc1cc(Cl)ccc1C (stereo not given)	inactive
CCN(CC)C(=S)SC(NC=O)C(Cl)(Cl)Cl (stereo not given)	inactive
Cc1cc(C)cc(OP(C)(N)=O)c1 (stereo not given)	inactive
CCOC(=O)Nc1ccc([As](=O)(O)O)c(O)c1	inactive
Cc1cc(SC(NC(=O)c2ccccc2)C(Cl)(Cl)Cl)nc(C(C)C)n1 (stereo not given)	inactive
CCCCOc1ccc(C(=O)NCC2(N3CCCCC3)CCCCC2)cc1OC	inactive
CP(=S)(Nn1cnnc1)Oc1ccccc1 (stereo not given)	inactive
CCOC(=O)Nc1cccc([As](=O)(O)O)c1	inactive
COc1ccccc1OP(C)(=O)Nc1ccccc1 (stereo not given)	inactive
Cc1cc(SC(NC=O)C(Cl)(Cl)Cl)ncn1 (stereo not given)	inactive
O=P(Nc1ccccn1)(c1cccc2ccccc12)c1cccc2ccccc12	inactive
O=[N+]([O-])c1ccc(Nc2ccc(Oc3ccc([N+](=O)[O-])cc3[N+](=O)[O-])cc2)c([N+](=O)[O-])c1	inactive
CP(=O)(Nc1ccccc1Br)Oc1ccccc1 (stereo not given)	inactive
CP(=O)(Oc1ccccc1)OC(c1ccccc1)C(F)(F)F (stereo not given)	inactive
COP1(=S)c2c(C)nn(CCC#N)c2N=C(c2ccc(F)cc2)N1C (stereo not given)	inactive
CP(=O)(Nc1ccc(SC(F)(F)F)cc1)Oc1ccc(Cl)cc1 (stereo not given)	inactive
Cc1cccc(C)c1OP(C)(=O)Nc1ccc(SC(F)(F)F)cc1 (stereo not given)	inactive
O=C(Nc1ccncc1[N+](=O)[O-])c1ccc([N+](=O)[O-])cc1[N+](=O)[O-]	inactive
Cc1cc(C)cc(OP(C)(=O)Nc2ccc(SC(F)(F)F)cc2)c1 (stereo not given)	inactive
CP(=O)(NC(=O)Nc1ccccc1)Oc1ccccc1 (stereo not given)	inactive
O=C(COc1ccccc1)OC1CN2CCC1CC2 (stereo not given)	inactive
CCc1ccc(OP(C)(=O)N2CCN(c3ccc([N+](=O)[O-])cc3)CC2)cc1 (stereo not given)	inactive

SMILES	outcome
CCOP(C)(=S)SCC(=O)NC(C)C(=O)O (stereo not given)	inactive
O=C(OC1CN2CCC1CC2)c1cccc([N+](=O)[O-])c1 (stereo not given)	inactive
O=[N+]([O-])c1cc([N+](=O)[O-])c(O)c([N+](=O)[O-])c1.c1ccc(Oc2ccncc2)cc1	inactive
CCOC(=O)c1ccc(NC(=O)C(C)(CCl)SC)cc1 (stereo not given)	inactive
CCOC(=O)c1ccc(NP(C)(=O)Oc2ccc(OC)cc2)cc1 (stereo not given)	inactive
CCC(C)N(CC(C)C)C(=S)SC(NC(C)=O)C(Cl)(Cl)Cl (stereo not given)	inactive
CP(=O)(Nc1ccccn1)Oc1ccc(Cl)cc1 (stereo not given)	inactive
O=[N+]([O-])c1cc([N+](=O)[O-])c(-n2nnc3ccccc32)c([N+](=O)[O-])c1	inactive
CCOP(=O)(NC(=NC(C)c1ccccc1)NC(C)c1ccccc1)OCC (stereo not given)	inactive
CCC1=CC2Cc3nc4ccc(Cl)cc4c(N)c3C(C1)C2 (stereo not given)	inactive
O=P1(Nc2ccccn2)COc2ccccc2OC1	inactive
CCOP(=O)(Nc1ccc(C)cn1)OCC	inactive
CN(CCCl)Cc1cc(Cl)c(NC2=NCCN2)c(Cl)c1	inactive
CC(C)(C)C(=O)NC(Sc1ncccn1)C(Cl)(Cl)Cl (stereo not given)	inactive
Clc1n[nH]nc1-c1nn[nH][15n]1	inactive
O=[N+]([O-])c1cc([N+](=O)[O-])c(-c2cnn(-c3ccccc3)c2)c([N+](=O)[O-])c1	inactive
COc1ccccc1CNC(=O)COC(=O)C(O)(c1ccccc1)c1ccccc1	inactive
CN(C(=O)Cc1ccc(Cl)c(Cl)c1)[C@@H]1CCCC[C@H]1N1CCCC1	inactive
CC(C)/C=N\N=C(\N)N[N+](=O)[O-]	inactive
CC1(CBr)Cn2c(nc3ccccc3c2=O)S1 (stereo not given)	inactive
O=[As](O)(c1ccccc1Br)c1ccccc1Br	inactive
Cc1ccc(C(=O)OC2CN3CCC2CC3)cc1 (stereo not given)	inactive
CC1CCC(C(C)C)C(OP(=O)(Nc2ccccn2)c2ccccc2)C1 (stereo not given)	inactive
Cc1nn(-c2ccccc2)c2c1P(=O)(N1CCOCC1)N(C)C(c1ccccc1)=N2 (stereo not given)	inactive
COc1cc(C2NCCC3(OCCO3)C2(C)C)cc(OC)c1OC.O=[N+]([O-])c1cc([N+](=O)[O-])c(O)c([N+](=O)[O-])c1 (stereo not given)	inactive
